Columns and labels:
Tankyrase 1/2 [1] = molecular target: T1, Tankyrase 1/2 (Homo sapiens, UniProt Q9H2K2+O95271); assay: Inhibition of tankyrase in human DLD1 cells assessed as inhibition of Wnt gene transcription after 40 to 48 hrs by STF assay; assay type: cell-based; conditions: dld-1
T1 sequence (Q9H2K2 whole entry): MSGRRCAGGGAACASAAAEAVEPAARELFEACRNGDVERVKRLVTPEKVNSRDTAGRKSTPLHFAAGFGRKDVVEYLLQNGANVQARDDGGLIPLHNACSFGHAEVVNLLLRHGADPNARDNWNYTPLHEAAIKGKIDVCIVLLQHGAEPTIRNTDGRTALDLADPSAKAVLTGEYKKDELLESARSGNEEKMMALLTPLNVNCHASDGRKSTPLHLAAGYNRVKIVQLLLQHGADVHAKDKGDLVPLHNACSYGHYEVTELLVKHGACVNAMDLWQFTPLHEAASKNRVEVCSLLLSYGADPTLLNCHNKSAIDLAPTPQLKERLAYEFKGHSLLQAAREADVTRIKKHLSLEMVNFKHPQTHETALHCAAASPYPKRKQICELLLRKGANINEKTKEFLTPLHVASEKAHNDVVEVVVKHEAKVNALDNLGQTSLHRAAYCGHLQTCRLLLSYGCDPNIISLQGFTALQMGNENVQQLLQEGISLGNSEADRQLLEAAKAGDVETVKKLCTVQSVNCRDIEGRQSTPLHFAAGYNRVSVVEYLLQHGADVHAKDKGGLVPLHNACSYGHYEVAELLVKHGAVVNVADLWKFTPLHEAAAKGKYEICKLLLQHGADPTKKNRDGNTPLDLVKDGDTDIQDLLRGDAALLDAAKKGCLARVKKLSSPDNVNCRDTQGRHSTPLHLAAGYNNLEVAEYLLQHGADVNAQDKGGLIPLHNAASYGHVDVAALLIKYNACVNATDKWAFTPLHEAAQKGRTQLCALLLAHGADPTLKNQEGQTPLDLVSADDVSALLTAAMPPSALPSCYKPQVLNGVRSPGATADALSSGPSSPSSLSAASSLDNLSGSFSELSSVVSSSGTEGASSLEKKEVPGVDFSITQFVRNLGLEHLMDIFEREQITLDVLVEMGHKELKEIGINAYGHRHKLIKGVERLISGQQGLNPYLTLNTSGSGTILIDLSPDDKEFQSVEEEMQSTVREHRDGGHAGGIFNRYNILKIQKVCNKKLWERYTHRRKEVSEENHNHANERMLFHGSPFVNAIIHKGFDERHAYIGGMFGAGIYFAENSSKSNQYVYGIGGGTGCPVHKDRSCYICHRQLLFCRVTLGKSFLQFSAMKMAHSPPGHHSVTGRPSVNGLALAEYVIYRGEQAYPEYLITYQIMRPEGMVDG
T1 sequence (O95271 whole entry): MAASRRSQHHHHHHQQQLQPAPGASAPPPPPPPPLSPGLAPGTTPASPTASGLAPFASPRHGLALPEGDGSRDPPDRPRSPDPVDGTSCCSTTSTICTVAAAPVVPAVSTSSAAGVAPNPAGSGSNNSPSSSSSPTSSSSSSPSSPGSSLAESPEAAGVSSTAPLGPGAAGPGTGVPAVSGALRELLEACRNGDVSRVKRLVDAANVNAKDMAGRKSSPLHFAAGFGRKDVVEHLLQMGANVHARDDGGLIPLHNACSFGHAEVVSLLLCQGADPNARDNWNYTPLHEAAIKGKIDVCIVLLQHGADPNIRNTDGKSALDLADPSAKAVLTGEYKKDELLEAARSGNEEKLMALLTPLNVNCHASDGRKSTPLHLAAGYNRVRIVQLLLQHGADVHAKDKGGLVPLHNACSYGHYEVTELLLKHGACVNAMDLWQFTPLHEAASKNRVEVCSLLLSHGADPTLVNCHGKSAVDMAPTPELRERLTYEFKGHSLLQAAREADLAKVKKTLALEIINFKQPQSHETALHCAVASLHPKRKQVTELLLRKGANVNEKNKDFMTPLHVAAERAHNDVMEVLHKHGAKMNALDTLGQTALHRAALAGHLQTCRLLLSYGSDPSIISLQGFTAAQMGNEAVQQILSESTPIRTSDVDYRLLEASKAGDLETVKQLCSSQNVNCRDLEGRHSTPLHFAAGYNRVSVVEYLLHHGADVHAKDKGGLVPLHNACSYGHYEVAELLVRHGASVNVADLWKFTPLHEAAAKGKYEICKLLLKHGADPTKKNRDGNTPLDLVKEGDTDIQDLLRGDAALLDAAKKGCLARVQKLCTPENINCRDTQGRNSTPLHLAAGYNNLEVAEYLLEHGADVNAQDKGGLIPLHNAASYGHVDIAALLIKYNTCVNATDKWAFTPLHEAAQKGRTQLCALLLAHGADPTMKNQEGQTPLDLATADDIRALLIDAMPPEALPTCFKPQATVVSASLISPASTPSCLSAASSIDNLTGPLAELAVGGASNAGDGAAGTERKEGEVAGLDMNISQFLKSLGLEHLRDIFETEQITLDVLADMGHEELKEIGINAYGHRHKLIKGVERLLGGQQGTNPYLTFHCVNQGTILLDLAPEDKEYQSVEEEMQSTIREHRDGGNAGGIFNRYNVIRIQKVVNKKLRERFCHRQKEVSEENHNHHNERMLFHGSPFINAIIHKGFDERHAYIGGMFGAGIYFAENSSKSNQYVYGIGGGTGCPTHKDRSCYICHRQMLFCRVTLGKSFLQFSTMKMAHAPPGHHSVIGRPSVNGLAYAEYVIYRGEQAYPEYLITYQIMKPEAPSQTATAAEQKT

Tankyrase 1/2 [2] = molecular target: T1, Tankyrase 1/2; assay: Inhibition of tankyrase in human SW480 cells assessed as degradation of total beta-catenin after 40 to 48 hrs; assay type: cell-based
Tankyrase 1/2 [3] = molecular target: T1, Tankyrase 1/2; assay: Inhibition of tankyrase in human SW480 cells assessed as axin2 accumulation after 24 hrs by Hoechst dye-based assay; assay type: cell-based
[4] = molecular target: T2, Poly [ADP-ribose] polymerase tankyrase-1 (Homo sapiens, UniProt O95271); assay: Inhibition of recombinant 6XHis-tagged TNKS1 (1091 to 1325) (unknown origin) after 60 mins by spectrophotometric analysis
T2 sequence (O95271 whole entry): T1 sequence (O95271 whole entry)

Row | SMILES | IC50 (Tankyrase 1/2 [1]) [nM] | IC50 (Tankyrase 1/2 [2]) [nM] | EC50 (Tankyrase 1/2 [3]) [nM] | IC50 [4] [nM]
1 | CC1(C)OC(=O)N([C@H]2CC[C@H](c3cnc(N)c(-c4ncccn4)c3)CC2)[C@H]1c1ccccc1 | 12 | 91 | 52 | 2
2 | CC1(C)OC(=O)N([C@H]2CC[C@@H](c3cnc(N)c(-c4ncccn4)c3)CC2)[C@H]1c1ccccc1 | – | 6550 | 5810 | –
